The subject of assay [1] is A375 cells. As to conditions: read-out: A375 XTT IC50 uM. For orientation: Tetrazolium dyes change colour on reduction, which living cells bring about.
Assay [2] relates to phospho-ERK1/2 in A375 cells. As to conditions: read-out: A375 ICW IC50.
Assay [3] concerns A375 cells. Kind of assay: cells. As to conditions: Homo sapiens, A-375, 72 h, read-out: A375 XTT IC50 uM.
For another assay, the target named is MEK (Homo sapiens (Human), UniProt Q02750). Kind of assay: biochemical.

Sequences of proteins named here, by UniProt entry; tags and fusion partners are left off.
UniProt Q02750, whole entry: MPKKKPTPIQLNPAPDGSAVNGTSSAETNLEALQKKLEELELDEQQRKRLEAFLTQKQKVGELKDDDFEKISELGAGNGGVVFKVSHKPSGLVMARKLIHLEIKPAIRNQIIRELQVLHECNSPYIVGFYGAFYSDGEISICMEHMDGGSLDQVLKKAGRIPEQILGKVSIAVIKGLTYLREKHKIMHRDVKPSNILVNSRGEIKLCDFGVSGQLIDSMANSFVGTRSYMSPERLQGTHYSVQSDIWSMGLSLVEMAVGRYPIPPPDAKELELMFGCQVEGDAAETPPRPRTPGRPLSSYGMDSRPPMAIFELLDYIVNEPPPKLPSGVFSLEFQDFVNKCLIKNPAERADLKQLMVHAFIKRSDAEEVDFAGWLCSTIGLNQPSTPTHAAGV

Where two headings read alike, the source gives them in different places. Some results are limits rather than exact numbers.

In the case of `Cc1nc2cnc3cc(F)c(-c4ccc(Oc5ncccn5)cc4Cl)cc3c2n1C1CCN(C(=O)C(C)F)CC1` (single isomer, unassigned) [Example 43A, (R or S)-1-(4-(8-(2-chloro-4-(pyrimidin-2-yloxy)phenyl)-7-fluoro-2-methyl-1H-imidazo[4,5-c]quinolin-1-yl)piperidin-1-yl)-2-fluoropropan-1-one], the figures for the IC50 (in the assay with A375 cells [1]; in assay [2]) were 0.677 µM and 848 nM, respectively. The matching figures for `Cc1nc2cnc3cc(F)c(-c4ccc(Oc5ncccn5)cc4Cl)cc3c2n1C1CCN(C(=O)C(C)F)CC1` (single isomer, unassigned) [Example 43B, (R or S)-1-(4-(8-(2-chloro-4-(pyrimidin-2-yloxy)phenyl)-7-fluoro-2-methyl-1H-imidazo[4,5-c]quinolin-1-yl)piperidin-1-yl)-2-fluoropropan-1-one]: 2.38 µM and 3800 nM.

As for `COc1cc(Oc2ncccn2)ccc1-c1cc2c(cc1F)ncc1nc(C)n([C@H]3CCN(C(=O)CO)C[C@@H]3F)c12` [Example 88, 1-((3S,4S)-3-fluoro-4-(7-fluoro-8-(2-methoxy-4-(pyrimidin-2-yloxy)phenyl)-2-methyl-1H-imidazo[4,5-c]quinolin-1-yl)piperidin-1-yl)-2-hydroxyethanone], the IC50 in the assay on A375 cells [3] worked out at 0.108 µM. As for `N#CCc1ccc(-n2cnc3cnc4cc(F)c(-c5ccc(Oc6ccccn6)cc5Cl)cc4c32)cc1` [compound (A)], the IC50 against MEK is under 100 nM. Same read-out and setting: under `COc1cc(Oc2ccccn2)ccc1-c1ccc2ncc3ncn(-c4ccc(CC#N)cc4)c3c2c1` [compound (B)] stands under 100 nM.

In general, IC50 refers to the concentration needed to halve the response being measured.

These data come from patent publication US9227969B2, “Compounds and compositions as inhibitors of MEK” (NOVARTIS AG, priority 2013, dated 2016).
